From patent publication US20240376226A1, “COMPOSITIONS AND METHODS RELATING TO TUMOR ACTIVATED T CELL ENGAGERS” (Janux Therapeutics, Inc., priority 2019, published 2024)

Experiments:
Cetuximab (Ab-1, Ab-3) = assay: Phagemid competition ELISA, Cetuximab pre-incubated with EGFR; type: binding; conditions: for Phage ELISA 2 nM EGFR % inhib: pre-incubation with 2 nM EGFR; for Phage ELISA 20 nM EGFR % inhib: pre-incubation with 20 nM EGFR
Trastuzumab (Ab-6, Ab-7) = assay: Phagemid competition ELISA, Trastuzumab pre-incubated with soluble HER2; type: binding; conditions: for Phage ELISA 6 nM Her2 % inhib: pre-incubation with 6 nM soluble HER2; for Phage ELISA 20 nM Her2 % inhib: pre-incubation with 20 nM soluble HER2

| SMILES | Phage ELISA 2 nM EGFR % inhib (Cetuximab (Ab-1, Ab-3)) | Phage ELISA 20 nM EGFR % inhib (Cetuximab (Ab-1, Ab-3)) | Phage ELISA 6 nM Her2 % inhib (Trastuzumab (Ab-6, Ab-7)) | Phage ELISA 20 nM Her2 % inhib (Trastuzumab (Ab-6, Ab-7)) |
| --- | --- | --- | --- | --- |
| CSCC[C@@H]1NC(=O)[C@H](CC(C)C)NC(=O)[C@H](CO)NC(=O)[C@H](CCCNC(=N)N)NC(=O)[C@@H](NC(=O)[C@H](Cc2c[nH]c3ccccc23)NC(=O)[C@H](CC(=O)O)NC(=O)CNC(=O)CN)CSSC[C@@H](C(=O)N2CCC[C@H]2C(=O)NCC(=O)NCC(=O)NCC(=O)NCC(=O)N[C@@H](CO)C(=O)NCCOCCOCCOCCOCCC(=O)N[C@@H](CCCCNC(=O)CCCC[C@@H]2SC[C@@H]3NC(=O)N[C@@H]32)C(N)=O)NC(=O)[C@H](CC(C)C)NC(=O)[C@H](CC(=O)O)NC(=O)[C@H]([C@@H](C)O)NC(=O)[C@H](Cc2ccc(O)cc2)NC(=O)[C@H](CO)NC1=O [Peptide-1] | 94% | 94% | – | – |
| CC[C@H](C)[C@@H]1NC(=O)[C@H](CC(C)C)NC(=O)[C@H](Cc2c[nH]cn2)NC(=O)[C@H](C)NC(=O)[C@H](CC(=O)O)NC(=O)[C@H](C)NC(=O)[C@@H](NC(=O)[C@H](CO)NC(=O)[C@@H](NC(=O)CNC(=O)CN)[C@@H](C)O)CSSC[C@@H](C(=O)N[C@@H](CO)C(=O)NCC(=O)NCC(=O)NCC(=O)NCC(=O)N[C@@H](CO)C(=O)NCCOCCOCCOCCOCCC(=O)N[C@@H](CCCCNC(=O)CCCC[C@@H]2SC[C@@H]3NC(=O)N[C@@H]32)C(N)=O)NC(=O)[C@H](CO)NC(=O)[C@@H]2CCCN2C(=O)[C@H](C)NC1=O [Peptide-2] | 85% | 86% | – | – |
| CC[C@H](C)[C@@H]1NC(=O)[C@H](Cc2c[nH]cn2)NC(=O)[C@H](CC(=O)O)NC(=O)[C@H](CC(C)C)NC(=O)[C@H](CC(=O)O)NC(=O)[C@H](CO)NC(=O)[C@@H](NC(=O)[C@H](CC(C)C)NC(=O)[C@@H]2CCCN2C(=O)CNC(=O)CN)CSSC[C@@H](C(=O)N[C@@H](CC(=O)O)C(=O)NCC(=O)NCC(=O)NCC(=O)NCC(=O)N[C@@H](CO)C(=O)NCCOCCOCCOCCOCCC(=O)N[C@@H](CCCCNC(=O)CCCC[C@@H]2SC[C@@H]3NC(=O)N[C@@H]32)C(N)=O)NC(=O)[C@H](CC(C)C)NC(=O)[C@H](CCCNC(=N)N)NC(=O)[C@H]([C@@H](C)O)NC1=O [Peptide-8] | – | – | 92% | 96% |
| CC(C)C[C@@H]1NC(=O)[C@H]([C@@H](C)O)NC(=O)[C@@H](NC(=O)[C@@H](NC(=O)[C@@H]2CCCN2C(=O)[C@H](CC(N)=O)NC(=O)CNC(=O)CN)C(C)C)CSSC[C@@H](C(=O)N[C@@H](CO)C(=O)N[C@@H](Cc2c[nH]cn2)C(=O)NCC(=O)NCC(=O)NCC(=O)NCC(=O)N[C@@H](CO)C(=O)NCCOCCOCCOCCOCCC(=O)N[C@@H](CCCCNC(=O)CCCC[C@@H]2SC[C@@H]3NC(=O)N[C@@H]32)C(N)=O)NC(=O)[C@H](CCC(=O)O)NC(=O)[C@H](Cc2ccc(O)cc2)NC(=O)[C@@H]2CCCN2C(=O)[C@H](CC(=O)O)NC(=O)CNC1=O [Peptide-10] | – | – | 94% | 94% |
| CC(C)C[C@@H]1NC(=O)[C@H](CCC(N)=O)NC(=O)[C@@H](NC(=O)[C@H](Cc2ccccc2)NC(=O)[C@@H](NC(=O)CNC(=O)CN)[C@@H](C)O)CSSC[C@@H](C(=O)N[C@@H](CCC(N)=O)C(=O)N[C@@H](CO)C(=O)NCC(=O)NCC(=O)NCC(=O)NCC(=O)N[C@@H](CO)C(=O)NCCOCCOCCOCCOCCC(=O)N[C@@H](CCCCNC(=O)CCCC[C@@H]2SC[C@@H]3NC(=O)N[C@@H]32)C(N)=O)NC(=O)[C@H](CCC(=O)O)NC(=O)[C@H](Cc2ccc(O)cc2)NC(=O)[C@@H]2CCCN2C(=O)[C@H](CC(=O)O)NC(=O)[C@H](C)NC(=O)[C@H](CC(N)=O)NC1=O [Peptide-11] | – | – | 95% | 96% |
| CC[C@H](C)[C@@H]1NC(=O)[C@H](CC(C)C)NC(=O)[C@H](CCC(=O)O)NC(=O)[C@@H](NC(=O)[C@H](Cc2ccc(O)cc2)NC(=O)CNC(=O)CNC(=O)CN)CSSC[C@@H](C(=O)N[C@@H](CO)C(=O)N2CCC[C@H]2C(=O)NCC(=O)NCC(=O)NCC(=O)NCC(=O)N[C@@H](CO)C(=O)NCCOCCOCCOCCOCCC(=O)N[C@@H](CCCCNC(=O)CCCC[C@@H]2SC[C@@H]3NC(=O)N[C@@H]32)C(N)=O)NC(=O)[C@H](C(C)C)NC(=O)[C@H](C(C)C)NC(=O)[C@H](Cc2ccc(O)cc2)NC(=O)[C@H](CC(=O)O)NC(=O)CNC1=O [Peptide-12] | – | – | 95% | 95% |
| CC[C@H](C)[C@@H]1NC(=O)[C@H](Cc2c[nH]c3ccccc23)NC(=O)CNC(=O)[C@H](Cc2c[nH]c3ccccc23)NC(=O)[C@H](CCCNC(=N)N)NC(=O)[C@H](CC(=O)O)NC(=O)[C@@H](NC(=O)[C@H](CC(C)C)NC(=O)CNC(=O)CN)CSSC[C@@H](C(=O)N[C@@H](Cc2c[nH]cn2)C(=O)NCC(=O)NCC(=O)NCC(=O)NCC(=O)N[C@@H](CO)C(=O)NCCOCCOCCOCCOCCC(=O)N[C@@H](CCCCNC(=O)CCCC[C@@H]2SC[C@@H]3NC(=O)N[C@@H]32)C(N)=O)NC(=O)[C@H](Cc2ccc(O)cc2)NC(=O)[C@@H]2CCCN2C(=O)[C@H](C)NC(=O)[C@H](CC(=O)O)NC1=O [Peptide-13] | – | – | 82% | 96% |
| C[C@@H](O)[C@H](NC(=O)CNC(=O)CN)C(=O)NCC(=O)N[C@H]1CSSC[C@@H](C(=O)N[C@@H](CO)C(=O)NCC(=O)NCC(=O)NCC(=O)NCC(=O)N[C@@H](CO)C(=O)NCCOCCOCCOCCOCCC(=O)N[C@@H](CCCCNC(=O)CCCC[C@@H]2SC[C@@H]3NC(=O)N[C@@H]32)C(N)=O)NC(=O)[C@H]([C@@H](C)O)NC(=O)CNC(=O)[C@H](Cc2c[nH]c3ccccc23)NC(=O)[C@H](Cc2c[nH]cn2)NC(=O)[C@H](Cc2c[nH]c3ccccc23)NC(=O)[C@H](Cc2c[nH]cn2)NC(=O)CNC(=O)[C@H](CCC(=O)O)NC(=O)[C@H]([C@@H](C)O)NC1=O [Peptide-14] | – | – | 80% | 91% |
| CC(C)C[C@@H]1NC(=O)[C@H](CO)NC(=O)[C@H](Cc2c[nH]c3ccccc23)NC(=O)[C@H](CC(=O)O)NC(=O)CNC(=O)[C@H](Cc2ccccc2)NC(=O)[C@H]([C@@H](C)O)NC(=O)[C@@H](NC(=O)[C@H](CO)NC(=O)[C@H](Cc2c[nH]cn2)NC(=O)CNC(=O)CN)CSSC[C@@H](C(=O)N[C@@H](C)C(=O)NCC(=O)NCC(=O)NCC(=O)NCC(=O)N[C@@H](CO)C(=O)NCCOCCOCCOCCOCCC(=O)N[C@@H](CCCCNC(=O)CCCC[C@@H]2SC[C@@H]3NC(=O)N[C@@H]32)C(N)=O)NC(=O)[C@H]([C@@H](C)O)NC(=O)CNC1=O [Peptide-16] | – | – | 85% | 98% |
| CC[C@H](C)[C@H](NC(=O)[C@H](Cc1ccccc1)NC(=O)CNC(=O)CN)C(=O)N[C@H]1CSSC[C@@H](C(=O)N[C@@H](CCC(=O)O)C(=O)NCC(=O)NCC(=O)NCC(=O)NCC(=O)N[C@@H](CO)C(=O)NCCOCCOCCOCCOCCC(=O)N[C@@H](CCCCNC(=O)CCCC[C@@H]2SC[C@@H]3NC(=O)N[C@@H]32)C(N)=O)NC(=O)[C@H](CO)NC(=O)CNC(=O)[C@H](CC(=O)O)NC(=O)[C@H](Cc2c[nH]c3ccccc23)NC(=O)[C@H](Cc2c[nH]c3ccccc23)NC(=O)[C@H](CC(N)=O)NC(=O)CNC(=O)[C@H](CC(C)C)NC(=O)[C@H]([C@@H](C)O)NC1=O [Peptide-17] | – | – | 97% | 97% |
